# Test results: PubChem BioAssay AID1529 (NMMLSC, 2009)
# Sequences of proteins named here, by UniProt entry; tags and fusion partners are left off.
# UniProt Q99759, whole entry: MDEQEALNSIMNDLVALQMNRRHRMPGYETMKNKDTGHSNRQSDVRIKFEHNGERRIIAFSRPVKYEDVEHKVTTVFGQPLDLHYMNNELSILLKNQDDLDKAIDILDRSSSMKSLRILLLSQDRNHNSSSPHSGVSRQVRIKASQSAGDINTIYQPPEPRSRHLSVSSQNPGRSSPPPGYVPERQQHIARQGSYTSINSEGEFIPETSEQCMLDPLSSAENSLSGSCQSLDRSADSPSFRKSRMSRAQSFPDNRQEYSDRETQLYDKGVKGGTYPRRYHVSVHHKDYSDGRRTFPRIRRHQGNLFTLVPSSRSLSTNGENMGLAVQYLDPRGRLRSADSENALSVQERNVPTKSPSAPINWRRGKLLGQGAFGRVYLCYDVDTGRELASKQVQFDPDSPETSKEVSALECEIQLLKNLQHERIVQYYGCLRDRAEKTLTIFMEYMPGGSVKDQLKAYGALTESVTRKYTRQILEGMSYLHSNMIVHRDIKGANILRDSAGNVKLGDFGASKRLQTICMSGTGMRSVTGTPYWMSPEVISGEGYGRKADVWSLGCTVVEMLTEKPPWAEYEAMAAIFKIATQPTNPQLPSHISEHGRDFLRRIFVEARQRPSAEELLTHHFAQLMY
# The entries are a selection whose mix differs from that of the whole data set. Active and inactive are the calls of the source.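 Rule for the calls: active = binding response more than 3 SD above or below the average of its plate-row segment, actives on both sides; inconclusive = wells at one plate position flagged as instrument error; inactive = the rest.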
# Molecular target: Mitogen-activated protein kinase kinase kinase 3 (Homo sapiens) (UniProt Q99759)
# Experiment: modulators of MEKK3-MEK5 PB1 binding, primary screen, biochemical, wildtype MEKK3, multiplex bead flow cytometry, Alexa488-MEK5 (AID 1529);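 note: Alexa488 bead fluorescence after subtracting the streptavidin-only scavenger bead signal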
# Conditions: bead-based flow cytometry, Alexa488-MEK5 binding to MEKK3; at 10 µM; actives lie on both sides; 0 = blocked by unlabeled MEK5, 100 = vehicle
row,SMILES,binding response (% of control)
1,O=[N+]([O-])c1cc([N+](=O)[O-])c(Nc2ccccn2)c([N+](=O)[O-])c1,inactive: 101%
